In publication PMC3389199 (Bioorganic & medicinal chemistry letters, 2012):

Test system: CB2 (mouse or human receptor expressed in HEK293)
Assay: Cannabinoid receptor competition binding, CB2

Structure (SMILES): O=C(NCCCCCCNC(=O)ON=C1CCCCC1)ON=C1CCCCC1 [RHC80267 (1), RHC80267]
- binding to the cannabinoid receptors (in words), CB2: did not bind

Structure (SMILES): O=C(N[C@H]1COC1=O)OCc1ccccc1 [SD41]
- binding to the cannabinoid receptors (in words), CB2: did not bind
